Assay results from US20210046106A1, “METHODS OF TREATING CANCER WITH ANDROGEN DEPRIVATION THERAPY IN COMBINATION WITH AN INHIBITOR OF THE SP1 TRANSCRIPTION FACTOR” (The Board of Trustees of the Leland Stanford Junior …, priority 2019, published 2021).

Assay: Phase 1 trial: population PK model (NONMEM, 1-compartment, oral absorption) and simulations
Conditions: range 395-790 mcg/L

In the case of O=[Se](O)O [sodium selenite, Sodium selenite pentahydrate], the “reaching the desired therapeutic range after a single dose” value (simulation FIG. 8(a)) is reported as “only the higher dose levels (33 mg and 49.5 mg) reach the desired therapeutic range” and the “time to enter the desired therapeutic range” value (simulation, 11 mg given twice daily) is reported as “approximately 1 day”.
